Experimental data published in PubChem BioAssay AID1597 (NINDS Approved Drug Screening Program, 2009).
Inconclusive results are not listed.

Test system: Drosophila SCA1 polyglutamine model, toxicity suppression
Experiment: Reduction of SCA1 polyglutamine toxicity, EC50 from dose response in whole drosophila (AID 1597)

`CN(CCCl)CCCl` was tested, and the EC50 was 2500 nM.
